scFv variants of Ab-14 (heavy chain) against a SARS-CoV-2 spike peptide

Reference: Engelhart et al. 2022, doi:10.1038/s41597-022-01779-4. File: FLAb, binding data.

All variants were tested on one target, the spike HR2 peptide PDVDLGDISGINAS (SARS-CoV-2).

Each scFv is VH, a (GGGGS)3 linker, VL, as in the parent Ab-14, and differs from it in the CDRs of the heavy chain only.
VH: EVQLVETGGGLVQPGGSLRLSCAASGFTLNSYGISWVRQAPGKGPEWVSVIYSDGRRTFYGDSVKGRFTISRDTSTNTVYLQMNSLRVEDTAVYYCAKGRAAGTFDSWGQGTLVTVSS
VL: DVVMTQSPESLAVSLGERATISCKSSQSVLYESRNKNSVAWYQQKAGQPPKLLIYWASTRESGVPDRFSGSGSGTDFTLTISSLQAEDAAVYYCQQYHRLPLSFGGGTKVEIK

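Phage display of a naive human antibody library on the peptide gave the parent. Variants in AAYL49 differ from the parent at up to three CDR positions; double and triple changes were sampled at random. Affinity was read by AlphaSeq, a pooled yeast mating assay with surface-displayed partners. Mating (16 h, 30 °C) was followed by selection of diploids and sequencing of their barcodes. A regression on co-assayed BCL2-family reference pairs converts the normalised counts of each replicate to an apparent Kd. The assay was run in three technical replicates.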

Changes read parent residue, position, new residue, counted from the first residue of the VH shown.
Numbers give log10(Kd / nM), so 0 is 1 nM and 3 is 1 µM. Smaller is tighter.
The mean shown is taken over the replicates in which the pair was detected.
"nd" marks a missing value. The strain was present, yet no cells mated with the target were sequenced in that replicate, which points to weak or no binding.
Three control strains display no target. For library AAYL49, 15% of the pairings with them gave a signal, with a median of 4.06 and one signal in twenty below 2.83, so weak values seen in few replicates may be background. Also given: how often the same scFv was detected with the empty control strains, with their mean in brackets.
Parent in this assay: reference entry 0.65, copy in this library 4.11 (one replicate of three).

changes	log10 Kd (nM) by replicate	mean log10 Kd (nM)	empty controls
V50L+R57E+S63L	nd / 4.05 / 5.52	4.78	2/9 (3.13)
G26E+N30R+D106P	nd / nd / nd	nd	0/9
G33D+F59I+G99I	nd / 3.54 / nd	3.54	3/9 (3.91)
R57S+V64K+A102Q	nd / nd / 4.21	4.21	1/9 (4.28)
S31H+G33L+S107W	4.75 / nd / nd	4.75	2/9 (3.50)
T58L+K65P+G103P	4.78 / 4.32 / 4.65	4.58	8/9 (4.47)
S53F+F59Q+A101F	nd / nd / nd	nd	1/9 (2.76)
T58S+G99A+A102S	4.19 / 2.56 / 3.16	3.31	5/9 (4.91)
S31V+F59C+G99A	3.64 / nd / 2.90	3.27	0/9
G61Q+V64Y+A102E	4.74 / 4.92 / nd	4.83	2/9 (5.29)
F27A+T28G+T104W	3.40 / nd / nd	3.40	0/9
L29I+S53D+G61W	nd / nd / nd	nd	0/9
G26K+N30Y+I51M	nd / nd / nd	nd	1/9 (4.16)
I51A+R57V+T58R	nd / nd / nd	nd	0/9
F27Q+S31N+S63T	2.12 / 2.06 / 2.30	2.16	4/9 (4.41)
G33R+D62E+R100L	nd / nd / 4.65	4.65	1/9 (3.13)
Y60F+D106I	nd / nd / nd	nd	0/9
L29T+R100N+A101H	1.18 / 1.41 / 1.51	1.36	0/9
G26E+Y32H	1.68 / 3.18 / 1.80	2.22	0/9
F59H+A102L+S107D	nd / nd / nd	nd	0/9
Y52T+G55A+V64L	nd / nd / nd	nd	0/9
G26I+D62I+K65A	4.24 / nd / 6.23	5.24	3/9 (4.38)
G55D+R56Q	nd / nd / nd	nd	1/9 (3.91)
N30G+D62E+R100K	0.92 / 0.96 / 1.07	0.98	2/9 (4.33)
I34F+Y60E+A101Q	nd / nd / nd	nd	3/9 (4.35)
S31H+Y60H+A102F	3.40 / nd / 3.73	3.57	0/9
Y32I+S35I+D106H	nd / 3.93 / nd	3.93	5/9 (4.67)
F27M+R57D+A101P	4.97 / nd / nd	4.97	3/9 (4.30)
N30K+D54V+D106E	nd / nd / nd	nd	0/9
L29P+S53K+T58E	nd / nd / nd	nd	1/9 (3.78)
G33P+Y52D+T104A	nd / nd / nd	nd	5/9 (4.26)
F27L+R56C+R100S	2.41 / 1.87 / 3.53	2.61	0/9
G26N+F59W+V64E	nd / nd / nd	nd	0/9
T28Q+S35I+V64L	nd / 3.69 / nd	3.69	1/9 (2.88)
R56T+G61E+G103H	nd / nd / 5.75	5.75	1/9 (3.70)
R56G+K65C+G99N	nd / nd / nd	nd	2/9 (3.42)
T28K+F59Q+T104W	2.07 / 2.50 / 2.13	2.23	0/9
L29H+R57H+T58A	nd / nd / nd	nd	2/9 (4.15)
S31K+G55A+R100H	nd / nd / nd	nd	0/9
D54G+S107L	nd / nd / nd	nd	3/9 (4.23)
Y52Q+V64W+K65P	nd / 4.41 / nd	4.41	6/9 (3.78)
S53T+V64R+T104S	4.73 / nd / nd	4.73	4/9 (3.79)
S31F+D54P+A101F	nd / nd / nd	nd	1/9 (2.04)
I51L+A101L+T104Y	4.08 / nd / nd	4.08	5/9 (4.16)
T28H+R57V+T104F	nd / nd / nd	nd	0/9
I51V+G55C+K65V	nd / 2.57 / 4.49	3.53	0/9
S53E+R57Y+R100L	nd / 3.92 / nd	3.92	1/9 (3.00)
N30C+I34F+K65V	nd / 4.29 / nd	4.29	1/9 (3.76)
S31Y+S35W+R56S	nd / nd / nd	nd	0/9
T28C+V50R+R57D	nd / nd / 4.68	4.68	3/9 (3.64)
F27G+S31P+G55K	nd / nd / nd	nd	0/9

Extract of 5 entries:

changes	log10 Kd (nM) by replicate	mean log10 Kd (nM)	empty controls
T28H+R57V+T104F	nd / nd / nd	nd	0/9
G26E+Y32H	1.68 / 3.18 / 1.80	2.22	0/9
T28C+V50R+R57D	nd / nd / 4.68	4.68	3/9 (3.64)
S53F+F59Q+A101F	nd / nd / nd	nd	1/9 (2.76)
S31H+Y60H+A102F	3.40 / nd / 3.73	3.57	0/9